Patent US6605424B1, “Method of detecting inhibitors of agonist-specific desensitization” (Duke University, priority 1989, dated 2003)

How the values were obtained:
[1] = target: protein kinase A (Homo sapiens, UniProt P17612); assay: Peptides as substrates for protein kinase A; assay type: biochemical
[2] = target: T1, βAR kinase (Bos taurus, UniProt P21146); assay: Inhibition of β2AR phosphorylation by βAR kinase by synthetic peptides (Example III); assay type: biochemical, bovine; details: hamster β2AR peptides; ND = no significant inhibition at ˜500 μM
T1 construct: βAR kinase was purified from bovine cerebral cortex; from tissue; host or cells: bovine cerebral cortex
T1 sequence (P21146 1-689): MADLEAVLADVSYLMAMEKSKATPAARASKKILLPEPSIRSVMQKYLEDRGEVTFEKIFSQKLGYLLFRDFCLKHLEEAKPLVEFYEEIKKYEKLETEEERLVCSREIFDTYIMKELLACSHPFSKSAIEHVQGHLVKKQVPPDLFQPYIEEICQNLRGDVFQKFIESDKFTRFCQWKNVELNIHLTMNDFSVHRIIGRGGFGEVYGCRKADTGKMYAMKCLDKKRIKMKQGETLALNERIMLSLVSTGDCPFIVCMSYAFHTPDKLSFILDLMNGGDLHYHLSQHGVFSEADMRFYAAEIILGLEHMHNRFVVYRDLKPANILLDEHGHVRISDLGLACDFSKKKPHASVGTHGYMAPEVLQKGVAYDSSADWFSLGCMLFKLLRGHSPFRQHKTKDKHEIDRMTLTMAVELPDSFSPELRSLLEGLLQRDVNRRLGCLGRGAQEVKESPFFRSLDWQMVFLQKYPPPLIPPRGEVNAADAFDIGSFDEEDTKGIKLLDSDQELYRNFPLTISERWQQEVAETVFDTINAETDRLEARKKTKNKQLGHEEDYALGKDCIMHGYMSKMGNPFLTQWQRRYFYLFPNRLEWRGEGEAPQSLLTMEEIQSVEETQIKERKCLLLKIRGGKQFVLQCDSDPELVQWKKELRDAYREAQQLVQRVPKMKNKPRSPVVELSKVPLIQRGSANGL
Protocol: FIG. 13. Inhibition of β2AR phosphorylation by synthetic peptides. Reconstituted β2AR (˜0.4 pmol) was incubated for 30 min at 30° with purified βAR kinase (˜30 ng) in the presence of 50 mM Tris-HCl, pH 7.5, 2 mM EDTA, 10 mM NaCl, 5 mM MgCl2, 5 mM sodium phosphate, 50 μM (−)-isoproterenol and 0.10 mM [γ^32P]ATP (2.0 cpm/fmol). Synthetic β2AR peptides were varied from 0 to 1 mM and included CI (Δ), CII (▴), CIII-2 (◯) and CT-1 (●). Reactions were stopped by the addition of […]. ^32P-labeled receptor was determined by cutting and counting the dried gel following autoradiography.
The β2-adrenergic receptor from hamster lung was purified to apparent homogeneity by sequential affinity and high performance liquid chromatography as described (Benovic et al (1984) Biochemistry 23:4510-4518). The purified receptor was reinserted into phosphatidylcholine vesicles as previously described (Cerione et al (1983) Nature 306:562-566). The protein-lipid pellets were resuspended in 20 mM Tris-HCl, pH 7.2, 2 mM EDTA and used as a substrate for the βAR kinase.
βAR kinase was purified from bovine cerebral cortex by modification of a previously described procedure (Benovic et al (1987) J. Biol. Chem. 262:9026-9032). Briefly, 250 g of bovine cortex was homogenized and the resulting high speed supernatant fraction was precipitated with 13-26% ammonium sulfate. This material was initially chromatographed on an Ultrogel AcA34 column equilibrated with 5 mM Tris-HCl, pH 7.5, 2 mM EDTA, 5 μg/ml leupeptin, 5 μg/ml pepstatin, 15 μg/ml benzamidine, 0.2 mM phenylmethyl sulfonyl fluoride (buffer A). The peak activity was diluted 1:1 with buffer A containing 0.02% triton X-100 and applied to a DEAE Sephacel column. Elution was accomplished with a 0-80 mM NaCl gradient in buffer A containing triton X-100. The peak activity was then applied directly to a CM Fractogel column and eluted with a 0-100 mM NaCl gradient in buffer A containing triton X-100. The purified kinase was stored at 4° C. […]

Row | substrate for protein kinase A [1] | IC50 [2] | Structure (SMILES)
1 | serve as substrates for protein kinase A | 70 to 320 µM and 208 µM | CC(C)C[C@H](NC(=O)CNC(=O)[C@H](Cc1c[nH]cn1)NC(=O)CNC(=O)[C@H](CO)NC(=O)[C@H](CCCNC(=N)N)NC(=O)CNC(=O)[C@H](CC(=O)O)NC(=O)[C@H](CCC(N)=O)NC(=O)[C@H](CCC(=O)O)NC(=O)[C@@H](N)C(C)C)C(=O)N[C@@H](CCCNC(=N)N)C(=O)N[C@@H](CCCNC(=N)N)C(=O)N[C@@H](CO)C(=O)N[C@@H](CO)C(=O)N[C@@H](CCCCN)C(=O)N[C@@H](Cc1ccccc1)C(=O)N[C@@H](CS)C(=O)N[C@@H](CC(C)C)C(=O)N[C@@H](CCCCN)C(=O)N[C@@H](CCC(=O)O)C(=O)O [CIII-2 (248-268)]
2 | – | 70 to 320 µM and 76 µM | CC[C@H](C)[C@H](NC(=O)[C@H](CCCCN)NC(=O)[C@H](CCC(N)=O)NC(=O)[C@H](CC(C)C)NC(=O)[C@H](CCC(N)=O)NC(=O)[C@H](CCCNC(=N)N)NC(=O)[C@H](CCCCN)NC(=O)[C@H](C)NC(=O)[C@@H](NC(=O)[C@H](CCC(N)=O)NC(=O)[C@H](Cc1ccccc1)NC(=O)[C@@H](NC(=O)[C@H](CCCNC(=N)N)NC(=O)[C@H](CO)NC(=O)[C@@H](N)Cc1ccc(O)cc1)C(C)C)C(C)C)C(=O)N[C@@H](CC(=O)O)C(=O)N[C@@H](CCCCN)C(=O)N[C@@H](CO)C(=O)N[C@@H](CCC(=O)O)C(=O)NCC(=O)N[C@@H](CCCNC(=N)N)C(=O)N[C@@H](Cc1ccccc1)C(=O)N[C@@H](Cc1c[nH]cn1)C(=O)N[C@@H](CO)C(=O)N1CCC[C@H]1C(=O)O [CIII-1 (219-243)]
3 | – | 70 to 320 µM and 240 µM | CC(C)C[C@H](NC(=O)[C@H](CO)NC(=O)[C@H](CCC(N)=O)NC(=O)[C@H](Cc1ccc(O)cc1)NC(=O)[C@H](CCCCN)NC(=O)[C@H](Cc1ccccc1)NC(=O)[C@@H]1CCCN1C(=O)[C@@H](N)CO)C(=O)N[C@@H](CC(C)C)C(=O)N[C@H](C(=O)N[C@@H](CCCCN)C(=O)N[C@@H](CC(N)=O)C(=O)N[C@@H](CCCCN)C(=O)N[C@@H](C)C(=O)N[C@@H](CCCNC(=N)N)C(=O)O)[C@@H](C)O [CII (137-151)]

Several values for one entry are separate records, joined by “and”; a condition that tells them apart may be missing. Identical values can stand only once.
